In patent US20080139457A1, “Therapeutic compositions comprising chorionic gonadotropins and HMG CoA reductase inhibitors” (Virginia Commonwealth University, priority 2005, published 2008):
“Also recorded” adds a separate entry of the source.

Assays:
Format in all cases: cell-based, human
ERK½, JNK½, AKT (S473) = test: Immunoblotting of phosphorylation status of ERK½, JNK½, AKT in LNCaP cells; conditions: hCG 2 mU/ml, within 6 hours
Protocol: SDS-PAGE and Immunoblotting. The cells were plated at 5×10^5 cells/cm^2 and treated with drugs at the indicated concentrations and after the indicated time of treatment, lysed in whole-cell lysis buffer (0.5 M Tris-HCl, pH 6.8, 2% SDS, 10% glycerol, 1% β-mercaptoethanol, 0.02% bromophenol blue), and the samples were boiled for 30 minutes. The boiled samples were loaded onto 10-14% SDS-PAGE and electrophoresis was run overnight. Proteins were electrophoretically transferred onto 0.22 μm nitrocellulose, and immunoblotted with various primary antibodies against different proteins. All immunoblots were visualized by enhanced chemiluminescence (ECL).
(§1) (1) LNCaP cells were cultured as described above. […] 0-6 hours after treatment, the cells were isolated, lysed in SDS PAGE sample buffer and equal protein concentrations subjected to SDS PAGE followed by immunoblotting to determine the phosphorylation status (activity status) of ERK½, JNK½, AKT (S473) and the expression level of ERK2 protein.
(§2) (2) LNCaP cells were cultured as described above. 12 hours after plating, the cells were treated with vehicle (VEH, PBS) or pertussis toxin (300 ng/ml). 23 hours after plating cells were treated with vehicle (VEH, DMSO) or the ERBB1 inhibitor AG1478 (1 μM).
(4) LNCaP cells were cultured as described above. […] Thirty minutes after irradiation the cells were isolated, lysed in SDS PAGE sample buffer and equal protein concentrations subjected to SDS PAGE followed by immunoblotting to determine the phosphorylation status (activity status) of ERK½ and ERBB1 Y1068 and the expression levels of ERBB1 and ERK2 proteins.
as §1, with “LNCaP” for “(1) LNCaP”, “At the indicated times” for “0-6 hours”, “treatment (12-96 h),” for “treatment,”

PC-3 cells = test: Colony formation assay in PC-3 cells; conditions: hCG with radiation
LNCaP cells [1] = test: Apoptosis assay in LNCaP cells (trypan blue exclusion)
Protocol: Cell culture. Human prostate cells (PC3 and LCNaP) were purchased from the ATCC were cultured at 37° C. (5% (v/v CO2) in vitro using RPMI supplemented with 10% (v/v) fetal calf serum.
LNCaP cells were cultured as described above. […] The cells were isolated by trypsinization 96 hours after irradiation. The attached and floating cells were combined, and cell viability was determined by trypan blue exclusion assays using a light microscope (*p<0.05 value greater than corresponding vehicle/irradiated+vehicle value; n=3 per data point ±SEM from 3 studies).
LNCaP cells were cultured as described above. […] Caspase inhibitors were re-supplemented every 24 hours. After 96 hours of culture, cell viability numbers were determined MTT assays using a plate reader. The cells were isolated 96 hours after irradiation by trypsinization, the attached and floating cells combined, and cell viability determine by trypan blue exclusion assays using a light microscope.
(2) LNCaP cells were cultured as described above. […] Cells were isolated 96 h after irradiation by trypsinization, the attached and floating cells combined, and cell viability determine by trypan blue exclusion assays using a light microscope.
(§3) LNCaP cells were cultured as described above. […] Cells were isolated 96 hours after irradiation by trypsinization, the attached and floating cells combined, and cell viability determine by trypan blue exclusion assays using a light microscope. Cells were then lysed in SDS PAGE sample buffer and equal protein concentrations subjected to SDS PAGE followed by immunoblotting to determine the PARP1 ADP-ribosylation status (activity status) in the presence or absence of PJ-34.
as §3, with “in Example 1. Twelve hours after plating the cells were transfected using Lipofectamine with either a scrambled siRNA (SCR) or with siRNA molecules to suppress PARP1 or AIF expression (siPARP; siAIF; 10 nM each).” for “above.”, “determine” for “determine the”, “and AIF expression” for “ADP-ribosylation status (activity status)”, “siPARP and siAIF, siRNA molecules, respectively.” for “PJ-34.”

LNCaP cells [2] = test: Cell survival (colony formation) assay in LNCaP cells; conditions: hCG 2 mU/ml 30 min prior to radiation 0-6 Gy; colonies over 28 days
Protocol: Bioassay for cell survival. LNCaP cells were cultured as described above. […] Ninety six hours after irradiation, media containing hCG was removed and fresh media lacking hCG added. Colonies were permitted to form over the following 28 days after which the media was removed, the cells fixed and stained with crystal violet. Groups of >50 cells were considered to be colonies.
Apoptosis Assay. LNCaP cells were cultured as described above. […] Thirty minutes after hCG exposure, cells were irradiated (4 Gy). Ninety six hours after irradiation, media containing hCG and AG1478 was removed and fresh media lacking hCG/AG1478 added. Colonies were permitted to form over the following 28 days after which the media was removed, the cells fixed and stained with crystal violet. Groups of >50 cells were considered to be colonies.
Bioassay for cell survival. LNCaP cells were cultured as described above. […] Ninety six hours after hCG and lovastatin treatment, media containing hCG and lovastatin was removed and fresh media lacking hCG and lovastatin was added. Colonies were permitted to form over the following 28 days after which the media was removed, the cells fixed and stained with crystal violet. Groups of >50 cells were considered to be colonies.

ERBB1 = test: Immunoblotting of ERBB1 phosphorylation in LNCaP cells; conditions: hCG 2 mU/ml, 0-180 min
Protocol: (§4) SDS-PAGE and Immunoblotting. The cells were plated at 5×10^5 cells/cm^2 and treated with drugs at the indicated concentrations and after the indicated time of treatment, lysed in whole-cell lysis buffer (0.5 M Tris-HCl, pH 6.8, 2% SDS, 10% glycerol, 1% β-mercaptoethanol, 0.02% bromophenol blue), and the samples were boiled for 30 minutes. […] All immunoblots were visualized by enhanced chemiluminescence (ECL).
as §2, with “μM). 24 hours after plating, cells were treated with hCG (2 mU/ml) or vehicle (VEH, PBS).” for “μM).”
(3) LNCaP cells were cultured as described above. 24 hours after plating, the cells were treated with hCG (2 mU/ml) or its vehicle (VEH, PBS).
(4) LNCaP cells were cultured as described above. Twenty four hours after plating cells were pretreated with vehicle (VEH, DMSO), the MEK½ inhibitor PD184352 (1 μM), or the metalloprotease inhibitor GM6001 (1 μM), and then treated 30 minutes afterwards with hCG (2 mU/ml) or its vehicle (VEH, PBS). Thirty minutes after hCG treatment, cells were irradiated (4 Gy). […] Results indicated an increase in ERBB1 Y1173 phosphorylation induced by hCG, 30 min after treatment. This increase was further enhanced by radiation exposure and was abolished by incubation of cells with the specific MEK½ inhibitor PD184352.

PARP1 = PARP1 ADP-ribosylation status (immunoblot) in LNCaP cells; conditions: hCG 2 mU/ml, 4 Gy, 30 min after irradiation
Protocol: as §4
PARP1 Activation and Expression Following Treatment with hCG and Radiation. LNCaP cells were cultured as described above. Twenty four hours after plating, the cells were treated with hCG (2 mU/ml) or vehicle (VEH, PBS) followed 30 minutes later by irradiation (4 Gy).
PARP1 Activation and Expression Following Treatment with an ERBB1 Inhibitor, hCG and Radiation. LNCaP cells were cultured as described above. Twelve hours after plating, the cells were infected with either empty vector virus (CMV) or with a virus to express dominant negative ERBB1 (CD533) at a multiplicity of infection (m.o.i.) of 25. Twenty four hours after plating or 24 h after infection, cells were treated with hCG (2 mU/ml) or vehicle (VEH, PBS), and after 30 minutes were irradiated (4 Gy). Treatment with AG1478 or vehicle (VEH, DMSO) was made either 5 minutes after or 30 minutes before radiation.

PC3 cells = test: Apoptosis assay in PC3 cells (trypan blue exclusion)
Protocol: Apoptosis assay in PC3 cells (Treatment of hCG and radiation). PC3 cells were cultured as described above. 24 hours after plating, the cells were treated with hCG (ProSpec-Tany) (2 mU/ml) 30 minutes prior to radiation exposure (0-6 Gy). The cells were isolated by trypsinization 96 hours after irradiation. […] The administration of hCG in combination with radiation (6 Gy) promoted the highest percentage of apoptosis.
Activation of ERK ½ and AKT and the Expression of ERK2 Following Treatment with hCG and Lovastatin. PC3 prostate carcinoma cells were cultured as described above.
Apoptosis assay in PC3, 22RW1 and SKOV3 cells.

[3] = pre-treatment with hCG for 12 hours or 6 hours
[4] = pretreatment with hCG for 30-90 min

Human chorionic gonadotropin [hCG]
AKT activity (S473) (ERK½, JNK½, AKT (S473)): did not significantly alter the high basal level of AKT activity | activation of ERK½ (ERK½, JNK½, AKT (S473)): promoted activation of ERK½ | activation of JNK½ (ERK½, JNK½, AKT (S473)): to a lesser extent activation of JNK½ | activation of the p38 MAPK pathway (ERK½, JNK½, AKT (S473)): did not promote activation of the p38 MAPK pathway | radiosensitization in colony formation assays (PC-3 cells): radiosensitized | apoptosis / cell death (trypan blue), hCG with radiation (LNCaP cells [1]; hCG 2 mU/ml 30, 60, 90 min prior to radiation (4 Gy), 96 h after irradiation): promoted apoptosis at a greater percentage than the administration of hCG alone; also recorded: greater than additive increase in cell death | cell killing as a single agent (LNCaP cells [1]; hCG 2 mU/ml, within 96 hours): caused a modest amount of cell killing as a single agent | radiosensitization, long pre-treatment (LNCaP cells [1]; [3]): did not significantly radiosensitize | radiosensitization, short pre-treatment (LNCaP cells [1]; [4]): enhanced the lethality of radiation | cell survival (colony formation), hCG with radiation (LNCaP cells [2]): promoted a decrease in cell survival when compared to the control; also recorded: radiosensitized | ERBB1 activation: phosphorylation of Y1173 and Y1068 (ERBB1): activated ERBB1; also recorded: prolonged phosphorylation of ERBB1 at Y1173 and Y1068 | ERBB1 phosphorylation at Y845 (ERBB1): transient phosphorylation at Y845 | ERBB1 phosphorylation at Y992 (ERBB1): little detectable phosphorylation at Y992 | PARP activation (PARP1 ADP-ribosylation), hCG with radiation (PARP1): acted in a greater than additive fashion to cause activation of poly ADP ribosyl polymerase (PARP) | apoptosis (cell viability by trypan blue), hCG with radiation (PC3 cells; hCG 2 mU/ml 30 min prior to radiation 0-6 Gy, 96 h after irradiation): promoted apoptosis at a greater percentage than the administration of hCG alone | cell killing as a single agent (PC3 cells; hCG 2 mU/ml, within 96 hours): caused a modest amount of cell killing as a single agent | radiosensitization, long pre-treatment (PC3 cells; [3]): did not significantly radiosensitize | radiosensitization, short pre-treatment (PC3 cells; [4]): enhanced the lethality of radiation
